Antibody variant affinities, Ab-14 light chain, assay 1

Data: MIT Lincoln Laboratory AlphaSeq set, Engelhart et al. 2022, doi:10.1038/s41597-022-01779-4, as distributed in FLAb.

Target: peptide PDVDLGDISGINAS, taken from heptad repeat 2 (HR2) of SARS-CoV-2 spike.

Ab-14 is the parent antibody, in scFv form: VH, then a (GGGGS)3 linker, then VL. The heavy chain is unchanged in all variants.
VH: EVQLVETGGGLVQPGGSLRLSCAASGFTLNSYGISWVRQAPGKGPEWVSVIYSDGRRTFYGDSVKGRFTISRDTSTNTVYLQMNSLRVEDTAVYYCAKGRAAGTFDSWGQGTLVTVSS
VL: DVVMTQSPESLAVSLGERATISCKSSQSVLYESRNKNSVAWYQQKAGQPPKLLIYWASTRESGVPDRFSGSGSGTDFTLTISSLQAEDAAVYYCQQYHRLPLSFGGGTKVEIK

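Library AAYL50 holds single substitutions and randomly drawn double and triple substitutions in the CDRs. Affinity was read by AlphaSeq, a pooled yeast mating assay with surface-displayed partners. Pairs that bind mate more often; barcode pairs of the diploids are counted by sequencing. A regression on co-assayed BCL2-family reference pairs converts the normalised counts of each replicate to an apparent Kd. There are three technical replicates.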

Positions count from residue 1 of the parent VL; A40D puts D in place of A. Values are apparent Kd, the geometric mean of the replicates that gave a signal; lower means stronger binding. "nd" means that the variant was in the library but no mating with the target was seen in any replicate; the authors take this as a sign of poor binding, and no number exists.

For A40D S62L H98Y, the assay gave nd (0 of 3 replicates).
For N35F Y97Q R99C, the assay gave nd (0 of 3 replicates).
For S25W A57G T59F, the assay gave nd (0 of 3 replicates).
For N35K Q95T, the assay gave 20 µM (3 of 3 replicates).
For N37S S38V L100T, the assay gave 71 µM (3 of 3 replicates).
For R34G E61Y L100E, the assay gave nd (0 of 3 replicates).
For S28Q Q96R H98R, the assay gave 44 nM (3 of 3 replicates).
For S26D Q27L A57F, the assay gave 14 µM (1 of 3 replicates).
For S25D S38C P101S, the assay gave nd (0 of 3 replicates).
For V29L N35A E61L, the assay gave 5.9 nM (3 of 3 replicates).
For S33E R34K K36A, the assay gave 4.8 nM (3 of 3 replicates).
For S28N R60G Y97R, the assay gave nd (0 of 3 replicates).
For K24V S62K L102Y, the assay gave 37 µM (2 of 3 replicates).
For S28I V29M S62L, the assay gave 8.7 nM (3 of 3 replicates).
For S25E Q96N Y97N, the assay gave 2.5 µM (3 of 3 replicates).
For K24N Q27D, the assay gave 8.7 nM (3 of 3 replicates).
For K24G S58L P101G, the assay gave nd (0 of 3 replicates).
For L30R Y97V L102H, the assay gave nd (0 of 3 replicates).
For R34V S62K Q95I, the assay gave nd (0 of 3 replicates).
For S25C S33E P101E, the assay gave nd (0 of 3 replicates).

Continued, with the values leading:

Read-out 180 µM (1 of 3 replicates), from S26A S62A P101S.
Read-out 18 nM (3 of 3 replicates), from R34V S38G R99N.
Read-out nd (0 of 3 replicates), from Q27H L30K N35A.
Read-out 26 µM (1 of 3 replicates), from K24Y P101D.
Read-out 18 µM (1 of 3 replicates), from S25P S28F Y97M.
Read-out 54 µM (1 of 3 replicates), from S33F V39W.
Read-out nd (0 of 3 replicates), from S25I H98Y L102G.
Read-out 29 µM (1 of 3 replicates), from L30N S103W.
Read-out nd (0 of 3 replicates), from Y31G V39K H98F.
Read-out nd (0 of 3 replicates), from S26D L30K L100Y.
Read-out 8.4 µM (2 of 3 replicates), from L30T S58F H98E.
Read-out 17 µM (3 of 3 replicates), from R60T Q96C P101A.
Read-out 9.4 µM (1 of 3 replicates), from N35Y Q96V.
Read-out nd (0 of 3 replicates), from S25W A40W T59S.
Read-out 1.4 µM (2 of 3 replicates), from L30M R60A E61Q.
Read-out nd (0 of 3 replicates), from K24G Q95W L102V.
Read-out 62 µM (1 of 3 replicates), from S58T T59M L100K.
Read-out 860 nM (1 of 3 replicates), from S26Q S38K V39R.
Read-out 7.0 nM (3 of 3 replicates), from W56M Q95R Q96H.
Read-out 7.0 nM (3 of 3 replicates), from K24N S33D L100C.

The opening 5 entries, copied out:

{"changes": "A40D S62L H98Y", "apparent Kd": "nd", "replicates with signal": "0/3"}
{"changes": "N35F Y97Q R99C", "apparent Kd": "nd", "replicates with signal": "0/3"}
{"changes": "S25W A57G T59F", "apparent Kd": "nd", "replicates with signal": "0/3"}
{"changes": "N35K Q95T", "apparent Kd": "20 µM", "replicates with signal": "3/3"}
{"changes": "N37S S38V L100T", "apparent Kd": "71 µM", "replicates with signal": "3/3"}

In this assay the parent's reference entry averaged 4.4 nM; its copy inside this library read 48 nM. Nonspecific signal, from three strains lacking the peptide, appeared in 18% of pairings of library AAYL50, centred on 15 µM (5% of these signals below 970 nM); values are not corrected for it.